Results as given in patent publication US20040077601A1, “Methods and compositions relating to isoleucine boroproline compounds” (Point Therapeutics, Inc., priority 2002, published 2004).

Test system: chemokine KC
Test: Serum levels of the chemokine KC by ELISA in mice after administration
Conditions: 0.2-, 2.0-, 20-, 200-μg doses, subcutaneous injection vs oral gavage, serum two hours later

Compound: CCC(C)C(N)C(=O)N1CCCC1B(O)O (stereo not shown) [Ile-boroPro]
- Potency in induction of serum KC response, subcutaneous versus oral: more potent in the induction of a KC response
